This note sets out measurements from patent US5795977A, “Water soluble adenosine kinase inhibitors” (Metabasis Therapeutics, Inc., priority 1996, dated 1998).

Structures can show the parent of a compound that is named as a salt.

In data set [1] the test system is male SA rats (maximal electroshock seizures). Kind of data set: Anticonvulsant activity, maximal electroshock seizures (MES). It is filed as in vivo. Particulars: rat, ip; > or < = fewer or more than 50% protected at 5 mg/kg screen; >> = no activity at the stated dose. The protocol:
The anticonvulsant activity of the tested compounds was evaluated in male SA rats (100-150g, Simonsen) using the maximal electroshock (MES) model described in Swinyard et al., Antiepileptic Drugs, 3d Ed. at 85-102 (Levy, et al., eds.), NY: Raven Press (1989). The rats were maintained on a 12/12 light/dark cycle in temperature controlled facilities with free access to food and water. For p.o. administration, the animals are fasted overnight, prior to the experiment. One to two hours prior to seizure testing, the animals were injected interperitoneally (ip) or orally (per os, po) with one of various doses of test compound dissolved in DMSO or PEG 400.
This endpoint was expressed as the percentage of animals in which the response was inhibited.
A general note: The maximal electroshock test induces tonic seizures with an electrical stimulus.

For another data set, the system named is Female SA rats. Briefly: Liver toxicity assay. It is filed as in vivo. Particulars: rat, i.v. infusion, total dose 75 μmole/kg, serum. On the procedure: Female SA rats (150-200 g) are anesthetized with halothane and cannulated via the internal jugular vein. The animals are allowed to recover for 3 days. At this time, 37.5 μmole/kg of an AK inhibitor is dissolved in 50% PEG400 and infused through the jugular catheter over 20 minutes. Twelve hours later, an additional 37.5 μmole/kg is infused over 20 minutes (total dose =75 μmole/kg). […] Liver enzymes (serum glutamic-oxaloacetic transaminase (SGOT), serum glutamic-pyruvic transaminase (SGPT), alkaline phosphatase) and total bilirubin in the serum samples are determined by a commercial laboratory.

Usually ED50 stands for the dose that gives a 50% effect, or the effect in half of the subjects.

On to `C[C@H]1O[C@@H](n2cc(-c3ccccc3)c3c(Nc4ccc(C(=N)N)cc4)ncnc32)[C@H](O)[C@@H]1O` [Compound 39, 4-N -(4-amidinophenyl)amino-5-phenyl-7-(5-deoxy-1-β-ribofuranosyl)pyrrolo[2,3-d]pyrimidine], for which the ED50 at 5 mg/kg in data set [1] was > 5 mg/kg.
On the same count and under the same terms, the figure for `C[C@H]1O[C@@H](n2cc(-c3ccccc3)c3c(Nc4ccc(CCN5CCOCC5)cc4)ncnc32)[C@H](O)[C@@H]1O` [Compound 3, 4-N-[4-(2-(4-morpholino)ethyl)phenyl]amino-5-phenyl-7-(5-deoxy-β-D-ribofuranosyl)pyrrolo[2,3-d]pyrimidine] is < 5 mg/kg; for `C[C@H]1O[C@@H](n2cc(-c3ccccc3)c3c(Nc4ccc(C(=O)NN5CCCCC5)cc4)ncnc32)[C@H](O)[C@@H]1O` [Compound 212] it is > 5 mg/kg; for `C[C@H]1O[C@@H](n2cc(-c3ccccc3)c3c(Nc4ccc(NC(=N)N)cc4)ncnc32)[C@H](O)[C@@H]1O` [Compound 269, 4-N-(4-Guanidinophenyl)amino-5-phenyl-7-(5-deoxy-1-β-D-ribofuranosyl)pyrrolo[2,3-d]pyrimidine] it is 5 mg/kg.
Same read-out and setting: the figure for `C[C@H]1O[C@@H](n2cc(-c3ccccc3)c3c(Nc4ccc(C(=O)O)cc4)ncnc32)[C@H](O)[C@@H]1O` [Compound 209, 4-N-(4carboxyphenyl)amino-5-phenyl-7-(5-deoxy-1-β-D-ribofuranosyl)pyrrolo[2,3-d]pyrimidine] is > 5 mg/kg; for `C[C@H]1O[C@@H](n2cc(-c3ccccc3)c3c(Nc4ccc(C(=O)N5CCNCC5)cc4)ncnc32)[C@H](O)[C@@H]1O` [Compound 210, 4-N-[4-(4-piperazinocarbonylphenyl)]amino-5-phenyl-7-(5-deoxy-1-β-D-ribofuranosyl)pyrrolo[2,3-d]pyrimidine] it is > 5 mg/kg.
Turning to `C[C@H]1O[C@@H](n2cc(-c3ccccc3)c3c(Nc4ccc(CCO)cc4)ncnc32)[C@H](O)[C@@H]1O` [Compound 2, 4-N-(4-(2-Hydroxyethyl)phenyl)amino-5-phenyl-7-(5-deoxy-β-D-ribofuranosyl)pyrrolo[2,3-d]pyrimidine], in data set [1], the ED50 at 5 mg/kg worked out at 5 mg/kg.
The same measure, in the same setting: to `C[C@H]1O[C@@H](n2cc(-c3ccccc3)c3c(Nc4ccc(CCNC(=N)N)cc4)ncnc32)[C@H](O)[C@@H]1O` [Compound 267, 4-N-[4-(2-Guanidinoethyl)phenyl]amino-5-phenyl-7-(5-deoxy-1-β-D-ribofuranosyl)pyrrolo[2,3-d]pyrimidine hydrochloride] belongs < 5 mg/kg.
For the molecule `C[C@H]1O[C@@H](n2cc(-c3ccccc3)c3c(Nc4ccc(CN(C)C)cc4)ncnc32)[C@H](O)[C@@H]1O` [Compound 1, 4-N-(4-(N,N-Dimethylaminomethyl)phenyl)amino-5-phenyl-7-(5-deoxy-β-D-ribofuranosyl)pyrrolo[2,3-d]pyrimidine], the ED50 at 5 mg/kg in data set [1] is > 5 mg/kg. Besides, the “Total Bilirubin” value in the data set on Female SA rats amounted to 0.13 mg/dL.
In the case of `CCN(CC)CCNC(=O)c1ccc(Nc2ncnc3c2c(-c2ccccc2)cn3[C@@H]2O[C@H](C)[C@@H](O)[C@H]2O)cc1` [Compound 211], the ED50 at 5 mg/kg in data set [1] was > 5 mg/kg.
As for `C[C@H]1O[C@@H](n2cc(-c3ccccc3)c3c(Nc4ccc(OCC(=O)N5CCNCC5)cc4)ncnc32)[C@H](O)[C@@H]1O` [Compound 196, 4-N-[4-(4-piperazinocarbonylmethyloxy)phenyl]amino-5-phenyl-7-(5-deoxy-1-β-D-ribofuranosyl)pyrrolo(2,3-d)pyrimidine], in data set [1], the ED50 at 5 mg/kg is > 5 mg/kg.
Still for that read-out and setting: the figure for `C[C@H]1O[C@@H](n2cc(-c3ccccc3)c3c(Nc4ccc(CCS(=O)(=O)O)cc4)ncnc32)[C@H](O)[C@@H]1O` [Compound 265, 4-N[4-(2-Sulfonyloxyethyl)phenylamino]-5-phenyl-7-(5-deoxy-1-β-D-ribofuranosyl)pyrrolo[2,3-d]pyrimidine] is > 5 mg/kg.
